Experimental data published in ChEMBL document CHEMBL4425113, “Chromenopyrazole, a Versatile Cannabinoid Scaffold with in Vivo Activity in a Model of Multiple Sclerosis” (J Med Chem, 2016).

Amino acid sequences for entries named in this document (tags omitted).
UniProt P34972, whole entry: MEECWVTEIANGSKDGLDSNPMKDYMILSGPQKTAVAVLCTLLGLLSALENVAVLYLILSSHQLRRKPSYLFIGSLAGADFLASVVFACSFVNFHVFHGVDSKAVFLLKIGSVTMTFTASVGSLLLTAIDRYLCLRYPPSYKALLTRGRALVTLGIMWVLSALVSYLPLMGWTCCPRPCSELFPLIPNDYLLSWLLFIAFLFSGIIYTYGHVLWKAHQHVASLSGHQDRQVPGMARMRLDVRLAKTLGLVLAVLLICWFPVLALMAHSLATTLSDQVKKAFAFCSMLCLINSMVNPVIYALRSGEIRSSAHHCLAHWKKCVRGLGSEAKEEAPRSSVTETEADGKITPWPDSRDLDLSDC

How the values were obtained:
Cannabinoid receptor 2 [1] = target: Cannabinoid receptor 2 (Homo sapiens, UniProt P34972); experiment: Agonist activity at human CB2 receptor expressed in HEK293 cell membranes assessed as induction of [35S]-GTPgammaS binding after 60 mins by liquid scintillation spectrometric method; type: functional
Cannabinoid receptor 2 [2] = target: T1, Cannabinoid receptor 2 (Rattus norvegicus, UniProt Q9QZN9)
T1 sequence (Q9QZN9 whole entry): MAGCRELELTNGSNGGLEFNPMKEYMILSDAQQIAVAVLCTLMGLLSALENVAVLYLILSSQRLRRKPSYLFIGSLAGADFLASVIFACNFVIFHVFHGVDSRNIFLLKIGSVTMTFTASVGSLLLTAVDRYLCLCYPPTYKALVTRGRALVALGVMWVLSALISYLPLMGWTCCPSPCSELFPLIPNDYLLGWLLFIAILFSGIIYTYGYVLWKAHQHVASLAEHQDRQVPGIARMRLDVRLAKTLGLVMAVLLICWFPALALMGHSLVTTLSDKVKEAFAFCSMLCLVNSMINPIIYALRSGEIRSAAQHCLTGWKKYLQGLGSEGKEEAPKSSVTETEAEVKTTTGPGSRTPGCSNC

CCCCCCC(C)(C)c1cc(OC)c([C@H]2C=C(CO)[C@@H]3C[C@H]2C3(C)C)c(OC)c1
EC50 (Cannabinoid receptor 2 [1]): 0.0645 µM
Ki (Cannabinoid receptor 2 [2]): 0.0227 µM
